Test results reported in US20240108738A1, “BICYCLIC PEPTIDE LIGANDS SPECIFIC FOR NK CELLS” (Bicycle Tx Limited, priority 2021, published 2024).

Protein sequences, listed by entry. Tags and fused reporters are not part of them. Residues count along the entry.
UniProt P08637, 17-208 F176V: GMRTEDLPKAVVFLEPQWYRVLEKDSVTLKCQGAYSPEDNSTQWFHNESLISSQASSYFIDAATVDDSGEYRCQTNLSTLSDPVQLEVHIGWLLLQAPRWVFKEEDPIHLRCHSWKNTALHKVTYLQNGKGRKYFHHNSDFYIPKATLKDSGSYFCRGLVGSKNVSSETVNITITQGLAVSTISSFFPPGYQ
UniProt P08637, 17-208 limits assumed: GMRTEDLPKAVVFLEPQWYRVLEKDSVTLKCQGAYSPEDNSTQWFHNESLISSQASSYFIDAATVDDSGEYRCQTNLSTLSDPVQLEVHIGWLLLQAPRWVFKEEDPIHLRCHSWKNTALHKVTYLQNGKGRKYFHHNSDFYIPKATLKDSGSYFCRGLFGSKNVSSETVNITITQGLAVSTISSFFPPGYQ

What was measured:
[1] = biological target: CD16a (V Variant) (Homo sapiens, UniProt P08637, F176V); experiment: FcγRIII (CD16a) SPR (Method A and/or Method B), V variant; assay type: binding
[2] = biological target: CD16a (F Variant) (Homo sapiens, UniProt P08637); experiment: FcγRIII (CD16a) SPR (Method A and/or Method B), F variant; assay type: binding

C#CCCC(=O)NCCCC[C@H](NC(=O)[C@H](C)NC(=O)[C@@H]1CSCc2nc3nc(n2)CSC[C@H](NC(=O)[C@@H]2CCCN2C(=O)CNC(=O)[C@H](CC(C)C)NC(=O)[C@H](CCC(=O)O)NC(=O)[C@H](CC(C)C)NC(=O)[C@H](CC(C)C)NC(=O)CNC(=O)[C@H](C(C)C)NC(=O)[C@@H](NC(=O)[C@H](C)N)CSC3)C(=O)N[C@@H](CO)C(=O)N[C@@H](CC(=O)O)C(=O)N[C@@H](CC(C)C)C(=O)N1)C(N)=O [BCY16165, A-(SEQ ID NO: 244)-A-[K(PYA)]]
Kd [1]: 3.23 µM

CC(C)C[C@@H]1NC(=O)CNC(=O)[C@@H]2CCCN2C(=O)[C@@H](NC(=O)[C@H](C)N)CSCc2nc3nc(n2)CSC[C@H](NC(=O)[C@@H]2CCCN2C(=O)CNC(=O)[C@H](CC(C)C)NC(=O)[C@H](CCC(=O)O)NC(=O)[C@H](CCC(=O)O)NC1=O)C(=O)N[C@@H](CO)C(=O)N[C@@H](CC(=O)O)C(=O)N[C@@H](CC(C)C)C(=O)N[C@H](C(=O)N[C@@H](C)C(N)=O)CSC3 [BCY16498, A-(SEQ ID NO: 245)-A]
Kd [2]: 2.36 µM | Kd [1]: 2.81 µM

CC(C)C[C@@H]1NC(=O)[C@H](CCC(=O)O)NC(=O)[C@H](CCC(=O)O)NC(=O)[C@H](CC(C)(C)C)NC(=O)CNC(=O)[C@H](C(C)C)NC(=O)[C@@H](NC(=O)[C@H](C)N)CSCc2nc3nc(n2)CSC[C@H](NC(=O)[C@@H]2CCCN2C(=O)CNC1=O)C(=O)N[C@@H](CO)C(=O)N[C@@H](CC(=O)O)C(=O)N[C@@H](CC(C)C)C(=O)N[C@H](C(=O)N[C@@H](C)C(N)=O)CSC3 [BCY16501, A-(SEQ ID NO: 247)-A]
Kd [1]: 3.23 ± 2.51 µM

CC(C)C[C@@H]1NC(=O)CNC(=O)[C@H](C(C)C)NC(=O)[C@@H](NC(=O)[C@H](C)N)CSCc2nc3nc(n2)CSC[C@H](NC(=O)[C@@H]2CCCN2C(=O)CNC(=O)[C@H](CC(C)C)NC(=O)[C@H](CCC(=O)O)NC(=O)[C@H](CC2CCC2)NC1=O)C(=O)N[C@@H](CO)C(=O)N[C@@H](CC(=O)O)C(=O)N[C@@H](CC(C)C)C(=O)N[C@H](C(=O)N[C@@H](C)C(N)=O)CSC3 [BCY16509, A-(SEQ ID NO: 254)-A]
Kd [2]: 2.82 µM

CCCC[C@@H]1NC(=O)[C@H](CC(C)C)NC(=O)CNC(=O)[C@H](C(C)C)NC(=O)[C@@H](NC(=O)[C@H](C)N)CSCc2nc3nc(n2)CSC[C@H](NC(=O)[C@@H]2CCCN2C(=O)CNC(=O)[C@H](CC(C)C)NC(=O)[C@H](CCC(=O)O)NC1=O)C(=O)N[C@@H](CO)C(=O)N[C@@H](CC(=O)O)C(=O)N[C@@H](CC(C)C)C(=O)N[C@H](C(=O)N[C@@H](C)C(N)=O)CSC3 [BCY16511, A-(SEQ ID NO: 256)-A]
Kd [2]: 4.02 µM | Kd [1]: ≥ 5 µM

CC(C)CC[C@@H]1NC(=O)CNC(=O)[C@H](C(C)C)NC(=O)[C@@H](NC(=O)[C@H](C)N)CSCc2nc3nc(n2)CSC[C@H](NC(=O)[C@@H]2CCCN2C(=O)CNC(=O)[C@H](CC(C)C)NC(=O)[C@H](CCC(=O)O)NC(=O)[C@H](CCC(=O)O)NC1=O)C(=O)N[C@@H](CO)C(=O)N[C@@H](CC(=O)O)C(=O)N[C@@H](CC(C)C)C(=O)N[C@H](C(=O)N[C@@H](C)C(N)=O)CSC3 [BCY16527, A-(SEQ ID NO: 262)-A]
Kd [1]: > 5 µM

CC(C)CC[C@@H]1NC(=O)[C@H](CC(C)C)NC(=O)CNC(=O)[C@H](C(C)C)NC(=O)[C@@H](NC(=O)[C@H](C)N)CSCc2nc3nc(n2)CSC[C@H](NC(=O)[C@@H]2CCCN2C(=O)CNC(=O)[C@H](CC(C)C)NC(=O)[C@H](CCC(=O)O)NC1=O)C(=O)N[C@@H](CO)C(=O)N[C@@H](CC(=O)O)C(=O)N[C@@H](CC(C)C)C(=O)N[C@H](C(=O)N[C@@H](C)C(N)=O)CSC3 [BCY16528, A-(SEQ ID NO: 263)-A]
Kd [1]: > 5 µM

CC[C@H](C)[C@@H]1NC(=O)[C@H](Cc2c[nH]c3ccccc23)NC(=O)[C@H](CCSC)NC(=O)[C@@H](NC(=O)[C@H](C)N)CSCc2nc3nc(n2)CSC[C@H](NC(=O)[C@@H]2CCCN2C(=O)[C@H](CC(=O)O)NC(=O)[C@H](CO)NC(=O)[C@H](CCCNC(=N)N)NC1=O)C(=O)NCC(=O)N[C@@H](C)C(=O)N[C@@H](Cc1c[nH]c2ccccc12)C(=O)N[C@H](C(=O)N[C@@H](C)C(N)=O)CSC3 [BCY19032, A-(SEQ ID NO: 181)-A]
Kd [2]: 10.5 µM | Kd [1]: 4.64 µM

CC[C@H](C)[C@@H]1NC(=O)[C@H](Cc2c[nH]cn2)NC(=O)[C@H](Cc2c[nH]c3ccccc23)NC(=O)[C@H](CCC(=O)O)NC(=O)[C@@H](NC(=O)[C@H](C)N)CSCc2nc3nc(n2)CSC[C@H](NC(=O)[C@@H]2CCCN2C(=O)[C@H](CCC(=O)O)NC(=O)[C@H](CO)NC1=O)C(=O)NCC(=O)N[C@@H](C)C(=O)N[C@@H](Cc1c[nH]c2ccccc12)C(=O)N[C@H](C(=O)N[C@@H](C)C(N)=O)CSC3 [BCY19034, A-(SEQ ID NO: 183)-A]
Kd [2]: 1.81 µM | Kd [1]: 1.08 µM

CC[C@H](C)[C@@H]1NC(=O)[C@H](Cc2c[nH]c3ccccc23)NC(=O)[C@H](CCSC)NC(=O)[C@@H](NC(=O)[C@H](C)N)CSCc2nc3nc(n2)CSC[C@H](NC(=O)[C@@H]2CCCN2C(=O)[C@H](CC(=O)O)NC(=O)[C@H](CO)NC(=O)[C@H](CCCNC(=N)N)NC1=O)C(=O)NCC(=O)N[C@@H](C)C(=O)N[C@@H](Cc1c[nH]c2ccccc12)C(=O)N[C@H](C(=O)N[C@@H](C)C(=O)NCC(=O)N[C@@H](C)C(=O)N[C@@H](C)C(=O)N[C@@H](C)C(=O)N[C@@H](CCC(=O)O)C(N)=O)CSC3 [BCY19038, A-(SEQ ID NO: 187)-AGAAAE]
Kd [2]: > 10 µM | Kd [1]: 6.85 µM

CC(C)[C@@H]1NC(=O)[C@H](CO)NC(=O)[C@H](Cc2c[nH]c3ccccc23)NC(=O)[C@H](CCCNC(=N)N)NC(=O)[C@@H](NC(=O)[C@H](C)N)CSCc2nc3nc(n2)CSC[C@H](NC(=O)[C@@H]2CCCN2C(=O)[C@H](CC(=O)O)NC(=O)[C@H](CCC(=O)O)NC1=O)C(=O)NCC(=O)N[C@@H](C)C(=O)N[C@@H](Cc1c[nH]c2ccccc12)C(=O)N[C@H](C(=O)N[C@@H](C)C(=O)NCC(=O)N[C@@H](C)C(=O)N[C@@H](C)C(=O)N[C@@H](C)C(=O)N[C@@H](CCC(=O)O)C(N)=O)CSC3 [BCY19040, A-(SEQ ID NO: 61)-AGAAAE]
Kd [2]: 1.6 µM | Kd [1]: 1.24 µM

CC[C@H](C)[C@@H]1NC(=O)[C@H](Cc2c[nH]cn2)NC(=O)[C@H](Cc2c[nH]c3ccccc23)NC(=O)[C@H](CCC(=O)O)NC(=O)[C@@H](NC(=O)[C@H](C)N)CSCc2nc3nc(n2)CSC[C@H](NC(=O)[C@@H]2CCCN2C(=O)[C@H](CCC(=O)O)NC(=O)[C@H](CO)NC1=O)C(=O)NCC(=O)N[C@@H](C)C(=O)N[C@@H](Cc1c[nH]c2ccccc12)C(=O)N[C@H](C(=O)N[C@@H](C)C(=O)NCC(=O)N[C@@H](C)C(=O)N[C@@H](C)C(=O)N[C@@H](C)C(=O)N[C@@H](CCC(=O)O)C(N)=O)CSC3 [BCY19041, A-(SEQ ID NO: 189)-AGAAAE]
Kd [2]: 1.82 µM | Kd [1]: 1.31 µM

Cc1ccc2c(C[C@@H]3NC(=O)[C@H](CCCNC(=N)N)NC(=O)[C@@H](NC(=O)[C@H](C)N)CSCc4nc5nc(n4)CSC[C@H](NC(=O)[C@@H]4CCCN4C(=O)[C@H](CC(=O)O)NC(=O)[C@H](CCC(=O)O)NC(=O)[C@H](C(C)C)NC(=O)[C@H](CO)NC3=O)C(=O)NCC(=O)N[C@@H](C)C(=O)N[C@@H](Cc3c[nH]c4ccccc34)C(=O)N[C@H](C(=O)N[C@@H](C)C(N)=O)CSC5)c[nH]c2c1 [BCY19046, A-(SEQ ID NO: 194)-A]
Kd [2]: 1.6 µM

CC(C)[C@@H]1NC(=O)[C@H](CO)NC(=O)[C@H](Cc2c[nH]c3cc(Cl)ccc23)NC(=O)[C@H](CCCNC(=N)N)NC(=O)[C@@H](NC(=O)[C@H](C)N)CSCc2nc3nc(n2)CSC[C@H](NC(=O)[C@@H]2CCCN2C(=O)[C@H](CC(=O)O)NC(=O)[C@H](CCC(=O)O)NC1=O)C(=O)NCC(=O)N[C@@H](C)C(=O)N[C@@H](Cc1c[nH]c2ccccc12)C(=O)N[C@H](C(=O)N[C@@H](C)C(N)=O)CSC3 [BCY19050, A-(SEQ ID NO: 197)-A]
Kd [2]: 2.15 µM

COc1cccc2[nH]cc(C[C@@H]3NC(=O)[C@H](C)NC(=O)CNC(=O)[C@@H]4CSCc5nc(nc(n5)CSC[C@@H](C(=O)N[C@@H](C)C(N)=O)NC3=O)CSC[C@H](NC(=O)[C@H](C)N)C(=O)N[C@@H](CCCNC(=N)N)C(=O)N[C@@H](Cc3c[nH]c5ccccc35)C(=O)N[C@@H](CO)C(=O)N[C@@H](C(C)C)C(=O)N[C@@H](CCC(=O)O)C(=O)N[C@@H](CC(=O)O)C(=O)N3CCC[C@H]3C(=O)N4)c12 [BCY19063, A-(SEQ ID NO: 203)-A]
Kd [2]: > 10 µM

C[C@H](N)C(=O)N[C@H]1CSCc2nc3nc(n2)CSC[C@H](NC(=O)[C@@H]2CCCN2C(=O)[C@H](CCC(=O)O)NC(=O)[C@H](CO)NC(=O)[C@H](Cc2ccccc2)NC(=O)[C@H](Cc2ccc(F)cc2)NC(=O)[C@H](Cc2c[nH]c4ccccc24)NC(=O)[C@H](CCCNC(=N)N)NC1=O)C(=O)NCC(=O)N[C@@H](C)C(=O)N[C@@H](Cc1c[nH]c2ccccc12)C(=O)N[C@H](C(=O)N[C@@H](C)C(N)=O)CSC3 [BCY20379, A-(SEQ ID NO: 225)-A]
Kd [1]: 1.43 µM

C[C@H](N)C(=O)N[C@H]1CSCc2nc3nc(n2)CSC[C@H](NC(=O)[C@@H]2CCCN2C(=O)[C@H](CCC(=O)O)NC(=O)[C@H](CCO)NC(=O)[C@H](Cc2ccccc2)NC(=O)[C@H](Cc2c[nH]cn2)NC(=O)[C@H](Cc2c[nH]c4ccccc24)NC(=O)[C@H](CCCNC(=N)N)NC1=O)C(=O)NCC(=O)N[C@@H](C)C(=O)N[C@@H](Cc1c[nH]c2ccccc12)C(=O)N[C@H](C(=O)N[C@@H](C)C(N)=O)CSC3 [BCY20388, A-(SEQ ID NO: 232)-A]
Kd [1]: 1.07 µM

C[C@H](N)C(=O)N[C@H]1CSCc2nc3nc(n2)CSC[C@H](NC(=O)[C@@H]2CCCN2C(=O)[C@H](CCCC(=O)O)NC(=O)[C@H](CO)NC(=O)[C@H](Cc2ccccc2)NC(=O)[C@H](Cc2c[nH]cn2)NC(=O)[C@H](Cc2c[nH]c4ccccc24)NC(=O)[C@H](CCCNC(=N)N)NC1=O)C(=O)NCC(=O)N[C@@H](C)C(=O)N[C@@H](Cc1c[nH]c2ccccc12)C(=O)N[C@H](C(=O)N[C@@H](C)C(N)=O)CSC3 [BCY20390, A-(SEQ ID NO: 234)-A]
Kd [2]: > 10 µM

C[C@H](N)C(=O)N[C@H]1CSCc2nc3nc(n2)CSC[C@H](NC(=O)[C@@H]2CCN2C(=O)[C@H](CCC(=O)O)NC(=O)[C@H](CO)NC(=O)[C@H](Cc2ccccc2)NC(=O)[C@H](Cc2ccc(O)cc2)NC(=O)[C@H](Cc2c[nH]c4ccccc24)NC(=O)[C@H](CCCNC(=N)N)NC1=O)C(=O)N[C@H](C)C(=O)N[C@@H](C)C(=O)N[C@@H](Cc1c[nH]c2ccccc12)C(=O)N[C@H](C(=O)N[C@@H](C)C(N)=O)CSC3 [BCY20394, A-(SEQ ID NO: 236)-A]
Kd [1]: 1 µM
